## scFv variants of Ab-14 (heavy chain) against a SARS-CoV-2 spike peptide

The measurements come from Li et al. 2023 (doi:10.1038/s41467-023-39022-2) through the FLAb antibody collection.

Target peptide (SARS-CoV-2 spike, HR2 region): PDVDLGDISGINAS

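Phage display of a naive human antibody library on the peptide gave the parent. The variants were designed computationally from a first round of random CDR variants and then made and measured. Several design methods are mixed in this list. In AlphaSeq, yeast of one mating type display the scFv and yeast of the other type display the target. Binding brings cells together so that they mate, and sequencing counts the barcode pairs among the diploids. Scores were corrected for input abundance and mapped to Kd with protein pairs of known affinity run in the same pool. There are six technical replicates.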

Parent: Ab-14, a human scFv built as VH, three GGGGS repeats, VL. Only the CDRs of the heavy chain vary.
VH: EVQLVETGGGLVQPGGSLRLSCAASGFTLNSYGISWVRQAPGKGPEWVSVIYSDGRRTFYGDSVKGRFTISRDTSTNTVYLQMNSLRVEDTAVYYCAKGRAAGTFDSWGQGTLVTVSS
VL: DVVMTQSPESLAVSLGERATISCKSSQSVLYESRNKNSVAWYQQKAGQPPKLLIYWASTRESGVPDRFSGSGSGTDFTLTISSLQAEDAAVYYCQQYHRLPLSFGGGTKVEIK

The parent's heavy chain CDRs are GFTLNSYGIS, VIYSDGRRTFYGDSVK, GRAAGTFDS; each variant's own CDRs replace them letter for letter.
Scale: log10 of Kd in nM, estimated from mating counts; low values are strong binders.
Averages over replicates are reported, and they cover detected replicates only.
An entry "not detected" has no value in the source: the pair was not observed among the diploids in any replicate. This suggests poor binding but is not conclusive.
Values of this round are not directly comparable with the first-round values of the same sequences.

{"CDR-H1": "GFDLNEYGIS", "CDR-H2": "VIYADGRRTFYADSVK", "CDR-H3": "GEAGGTFDV", "mean, log10 nM": "-0.11", "detected": "6/6", "control signals": "1/18"}
{"CDR-H1": "GFNLNSYGIS", "CDR-H2": "VIYSDGRRTFYIDSVK", "CDR-H3": "GRIAGTFDS", "mean, log10 nM": "-0.07", "detected": "1/6", "control signals": "0/18"}
{"CDR-H1": "GFELNSYGIS", "CDR-H2": "VIYSDGRRTFYGDSVK", "CDR-H3": "GSTAGTFDV", "mean, log10 nM": "-0.02", "detected": "6/6", "control signals": "0/18"}
{"CDR-H1": "GFDLNEYGIS", "CDR-H2": "VIYADGMRTAYSDSVK", "CDR-H3": "GNLAGTFDS", "mean, log10 nM": "-0.42", "detected": "6/6", "control signals": "0/18"}
{"CDR-H1": "GKSLDEYGIS", "CDR-H2": "VIYADGLRMVYANSVK", "CDR-H3": "GQLTDTLLL", "mean, log10 nM": "not detected", "detected": "0/6", "control signals": "0/18"}
{"CDR-H1": "GFDLNEYGIS", "CDR-H2": "VIYADGMRTAYQDSVK", "CDR-H3": "GENAGTFDI", "mean, log10 nM": "0.46", "detected": "6/6", "control signals": "1/18"}
{"CDR-H1": "GFCLNSYGIS", "CDR-H2": "VIYSDGRRTFYGDSVK", "CDR-H3": "GRAAGTFDR", "mean, log10 nM": "not detected", "detected": "0/6", "control signals": "0/18"}
{"CDR-H1": "GFTLNSYGIS", "CDR-H2": "VIYADGRRTYYGDSVK", "CDR-H3": "GRAAGTFDQ", "mean, log10 nM": "0.52", "detected": "6/6", "control signals": "0/18"}
{"CDR-H1": "GFTLNSYGIS", "CDR-H2": "VIYSDGRRTFYSDSVK", "CDR-H3": "GMSAGTFDS", "mean, log10 nM": "0.84", "detected": "6/6", "control signals": "0/18"}
{"CDR-H1": "GFTLNQYGIS", "CDR-H2": "VIYPDGRRTFYSDSVK", "CDR-H3": "GRAAGFFDS", "mean, log10 nM": "not detected", "detected": "0/6", "control signals": "0/18"}
{"CDR-H1": "GFSLNEYGIS", "CDR-H2": "VIYSDGRRTFYGDSVK", "CDR-H3": "GVSAGTFDS", "mean, log10 nM": "0.70", "detected": "6/6", "control signals": "0/18"}
{"CDR-H1": "GFDLNEYGIS", "CDR-H2": "VIYADGKRTFYADSVK", "CDR-H3": "GQLAGTFSV", "mean, log10 nM": "-0.84", "detected": "6/6", "control signals": "0/18"}
{"CDR-H1": "GFQLNSYGIS", "CDR-H2": "VIYSDGRRTFYSDSVK", "CDR-H3": "GTAAGTFDS", "mean, log10 nM": "0.15", "detected": "6/6", "control signals": "0/18"}
{"CDR-H1": "GFTLNSYGIS", "CDR-H2": "VIYADGLRTFYGDSVK", "CDR-H3": "GRAYGTNDS", "mean, log10 nM": "0.24", "detected": "6/6", "control signals": "0/18"}
{"CDR-H1": "GFTINSYGIS", "CDR-H2": "VIYSDGRRTFYGDQVK", "CDR-H3": "GRAAGTMDS", "mean, log10 nM": "1.36", "detected": "2/6", "control signals": "0/18"}
{"CDR-H1": "GFTLNSAGIS", "CDR-H2": "VIYSDGVRTFYSDSVK", "CDR-H3": "GALAGTFVS", "mean, log10 nM": "not detected", "detected": "0/6", "control signals": "0/18"}
{"CDR-H1": "GNSLQEYGIS", "CDR-H2": "VIYADGMRTAYTDSVK", "CDR-H3": "GLFGYTFLD", "mean, log10 nM": "not detected", "detected": "0/6", "control signals": "0/18"}
{"CDR-H1": "YFNLNSYGIS", "CDR-H2": "VIYSDGRRTFYGDSVK", "CDR-H3": "GRTAGTFDS", "mean, log10 nM": "0.36", "detected": "6/6", "control signals": "0/18"}
{"CDR-H1": "GFDLNSYGIS", "CDR-H2": "VIYSDGRRTFYVDMVK", "CDR-H3": "GKAAGTFDV", "mean, log10 nM": "not detected", "detected": "0/6", "control signals": "0/18"}
{"CDR-H1": "GFDLNEYGIS", "CDR-H2": "VIYADGQRTFYSDSVK", "CDR-H3": "GQLAGTFDV", "mean, log10 nM": "-0.47", "detected": "6/6", "control signals": "0/18"}
{"CDR-H1": "AFTLDSYGHG", "CDR-H2": "VIYSDGRATFYGDSVK", "CDR-H3": "GRAAGTALS", "mean, log10 nM": "not detected", "detected": "0/6", "control signals": "1/18"}
{"CDR-H1": "GFDLNEYGIS", "CDR-H2": "VIYADGMRTAYSDSVK", "CDR-H3": "GHVAGTFDV", "mean, log10 nM": "-0.65", "detected": "6/6", "control signals": "1/18"}
{"CDR-H1": "GFLLNDYGIS", "CDR-H2": "VIYSDGRRTWYGDSVK", "CDR-H3": "GRAAGTFDS", "mean, log10 nM": "not detected", "detected": "0/6", "control signals": "1/18"}
{"CDR-H1": "GFTLNSYGIS", "CDR-H2": "VIYSDGMRTWYADSVK", "CDR-H3": "GRAAGTFDS", "mean, log10 nM": "1.30", "detected": "6/6", "control signals": "1/18"}
{"CDR-H1": "GFNIEEYGIS", "CDR-H2": "VIYADGRRTAYAEPVK", "CDR-H3": "GESGGTIDT", "mean, log10 nM": "0.86", "detected": "6/6", "control signals": "1/18"}
{"CDR-H1": "GFDLNEYGIS", "CDR-H2": "VIYADGVRTFYADSVK", "CDR-H3": "GENAGTFDQ", "mean, log10 nM": "1.26", "detected": "6/6", "control signals": "1/18"}
{"CDR-H1": "GFNLNEYGIS", "CDR-H2": "VIYADGRRRAVIDQVK", "CDR-H3": "GLVSFMFDL", "mean, log10 nM": "not detected", "detected": "0/6", "control signals": "0/18"}
{"CDR-H1": "GFDLNEYGIS", "CDR-H2": "VIYADGRRTAYADSVK", "CDR-H3": "GSNAGTFDQ", "mean, log10 nM": "-0.96", "detected": "6/6", "control signals": "0/18"}
{"CDR-H1": "GFTVDLYGIS", "CDR-H2": "VIYSDGERTFYDDSVR", "CDR-H3": "SRAAGRFDH", "mean, log10 nM": "not detected", "detected": "0/6", "control signals": "2/18"}
{"CDR-H1": "GFNLDEYGIS", "CDR-H2": "VIYADGKRSHYTDKVK", "CDR-H3": "GTVGDFMMV", "mean, log10 nM": "not detected", "detected": "0/6", "control signals": "0/18"}
{"CDR-H1": "GFTLLSYGIS", "CDR-H2": "VIYSDGRRTFYGDSFK", "CDR-H3": "GRAAGDFDS", "mean, log10 nM": "not detected", "detected": "0/6", "control signals": "0/18"}

Repeated from above, the 2 best binders with a signal in all replicates:

{"CDR-H1": "GFDLNEYGIS", "CDR-H2": "VIYADGRRTAYADSVK", "CDR-H3": "GSNAGTFDQ", "mean, log10 nM": "-0.96", "detected": "6/6", "control signals": "0/18"}
{"CDR-H1": "GFDLNEYGIS", "CDR-H2": "VIYADGKRTFYADSVK", "CDR-H3": "GQLAGTFSV", "mean, log10 nM": "-0.84", "detected": "6/6", "control signals": "0/18"}

Background: pairings of all heavy chain designs with three empty control strains gave a value in 1% of cases (median 2.08, 5th percentile 0.84). Values in that range, when seen in few replicates, are hard to tell from nonspecific mating. Also given: how often the same scFv was detected with the empty control strains.
The parent sequence was in this pool as ten entries: three were never detected, three once, and four in most replicates, with averages from 0.34 to 2.37.
In the paper, a design with two or fewer of six values counts as a poor binder.